Hits are enriched below; roughly 2.8% of the tested compounds scored in any of these assays.
esBAF inh – SWI/SNF esBAF complex inhibition; mouse ES cells, Bmi1-luciferase knock-in reporter, 24 h; 100% = twice the neutral-well signal; reporter increase, % at 12.5 µM; 350,000 tested, 2% active; in the data active = activation above about 40%; inconclusive = no clear call, values can overlap the other calls;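 also: 0% = median of the plate's neutral control wells and 100% = double that signal; a rise in the Bmi1 reporter signal indicates esBAF inhibition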
PGC1a acetyl inh – modulators of PGC1a acetylation. 350,000 tested, 0.17% active. inhibition, % at 15.6 µM. U2OS PGC1a acetylation, AlphaScreen anti-acetyl-lysine; with virally co-expressed GCN5 acetyltransferase;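 active = every replicate shows inhibition of at least 40%; inconclusive = mean inhibition at least 40% but some replicate below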;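 also: 0% = neutral control wells and 100% = positive control wells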
C2C12 statin – suppressors of simvastatin-induced myotoxicity in C2C12 myotubes | 330,000 tested, 0.78% active | AID 602340 | rescue of ATP level, % at 7.49 µM | ATP luminescence, 48 h; scaled: DMSO 0, geranylgeraniol control 100;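 active = mean ATP rescue above about 67%, or every replicate alone reaching that limit, limit read from the data, passing the limit was not always enough; inconclusive = no clear call, values can overlap the other calls; inactive = mean under the limit and some replicate under it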;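 also: myotubes were challenged with 10 µM simvastatin during compound exposure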
E-selectin induc – E-selectin induction on HUVECs; P16581; HUVEC E-selectin immunofluorescence imaging; normalized: neutral wells 0, TNF-alpha wells 100; activation, % at 7.58 µM; 260,000 tested, 0.37% active; AID 686992;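 active = mean E-selectin-positive cell signal at least 10% of the positive control, reached in at least 60% of replicates, without over 20% cell loss; inconclusive = no rule given, readout overlaps actives, possibly toxicity-flagged; inactive = the rest, including those meeting only one limit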
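System: HUVEC, human umbilical vein endothelial cells; quantity: 3,000 cells/well; buffer or medium: EGM-2 medium, gelatin-coated wells; dosing: single-point compound dose; detection: immunofluorescence imaging; evaluation: % PE-positive cells; benchmarks: TNF-alpha, DMSO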
PglD DTNB – blocks C. jejuni PglD acetyltransferase activity. inhibition, % at 12.5 µM. purified PglD enzyme, DTNB colorimetric CoA detection. AID 602405. 360,000 tested, 0.098% active; in the data active = inhibition above about 16%, passing the limit was not always enough; inconclusive = no clear call, values can overlap the other calls
Yeast UUG start-1 – modulators of start codon recognition fidelity in yeast; AID 602363; activity score, % at 18.7 µM; S. cerevisiae UUG-firefly luciferase reporter, luminescence/redox ratio; actives 0.13% (n = 350,000);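 active = replicate mean at a twofold rise or more, about +100% in these data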;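 note: firefly luciferase made from a UUG start codon reports start codon fidelity; reporter light over untreated wells divided by growth signal over untreated wells; some hits fall short of that in this replicate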
Yeast UUG start-2 – alters UUG start codon use in yeast; shares compounds with Yeast UUG start-1; S. cerevisiae UUG-start firefly luciferase, luminescence, 4 h; 100% means double the DMSO signal; activation, % at 38 µM; 540 tested, under 10 active; AID 652061;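 active = signal increase whose fitted curve reaches an absolute level of 40 at a concentration under 10 µM; inactive = activity opposite to the expected increase, or the rest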
esBAF Ring1 qPCR – confirmation of esBAF inhibitors: Ring1 de-repression in mouse ESCs; fold change at 33 µM; mouse ESC E14, Ring1 mRNA RT-qPCR fold change; shares compounds with esBAF inh; 550 tested, under 10 active;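 active = Ring1 gene expression raised more than 2-fold over untreated cells in both replicates at either tested dose; inconclusive = only one replicate above 2-fold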;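 also: Ring1 transcript normalised to actin housekeeping signal by TaqMan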
Fgf4 repress – esBAF inhibition confirmed by Fgf4 repression | shares compounds with esBAF inh | mouse ESC E14, Fgf4 mRNA qPCR fold change; hits give low values | Fgf4 expression fold change at 33 µM | 550 tested, 4% active;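 active = Fgf4 expression under 0.8 fold of control in both repeat measurements at one or both tested doses; inconclusive = under 0.8 fold in just a single repeat measurement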;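 also: Fgf4 transcript normalised to actin in duplex TaqMan qPCR; cells exposed to compound for 24 h before lysis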
esBAF Bmi1 qPCR – esBAF inhibition confirmed by Bmi1 de-repression; mouse ESE14 ES cells, Bmi1 mRNA qPCR fold; hits give high values; fold change at 33 µM; 550 tested, under 10 active; shares compounds with esBAF inh;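 active = Bmi1 expression fold change above 6 at either tested concentration, seen in replicate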;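 also: higher fold means more Bmi1 de-repression and stronger esBAF inhibition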
A549 cytotox – kills or reduces viability of A549 cells | shares compounds with esBAF inh | A549 cytotoxicity, plate reader | 550 tested, under 10 active | AID 743188 | cell viability change % (negative = cytotoxic), % at 25 µM, hits read low; call rule not given here
HepG2 cytotox SP – kills or reduces viability of HepG2 cells. shares compounds with esBAF inh. HepG2 cytotoxicity, plate reader; hits give low values. activity change, negative = inhibition, % at 25 µM. 550 tested, 4% active. AID 743189; in the data active = activity change below about -50%
HEK293 tox SP – HEK293 cell cytotoxicity at single point. shares compounds with esBAF inh. plate reader. activity change, negative = inhibition, % at 25 µM, hits read low. 550 tested, 3% active. AID 743190; in the data active = activity change below about -38%, passing the limit was not always enough
Numbers without * were called inactive; i = inactive; ? = inconclusive; · = no result given; ! = not active in a repeat.

SMILES	esBAF inh	PGC1a acetyl inh	C2C12 statin	E-selectin induc	PglD DTNB	Yeast UUG start-1	Yeast UUG start-2	others
Cc1noc(C)c1NC(=O)N(C)C[C@H]1Oc2ncc(C#CC3CCCCC3)cc2C(=O)N([C@H](C)CO)C[C@@H]1C	2	-2	1	0	0	12*	i
C[C@@H]1CN([C@@H](C)CO)C(=O)c2cc(C#CCc3ccccc3)cnc2O[C@H]1CN(C)CC1CCCC1	-6	-28	-32	4	6	167*	i
C[C@H]1CN([C@@H](C)CO)C(=O)c2cc(C#CCC3CCCC3)cnc2O[C@@H]1CN(C)C(=O)CC1CC1	5	2	-4	0	-5	121*!	i
Cc1noc(C)c1NC(=O)N(C)C[C@@H]1Oc2ncc(C#CC3CCCCC3)cc2C(=O)N([C@H](C)CO)C[C@H]1C	2	-6	7	-1	-1	-13	·
C[C@@H]1CN([C@H](C)CO)C(=O)c2cc(C#CC3CCCCC3)cnc2O[C@@H]1CN(C)Cc1cccnc1	6	-3	-3	0	-2	11	·
C[C@@H]1CN([C@H](C)CO)C(=O)c2cc(C#CC3CCCCC3)cnc2O[C@H]1CN(C)Cc1cccnc1	2	13	-1	0	3	162*!	i
COCC#Cc1ccc2c(c1)O[C@@H](CN(C)S(=O)(=O)c1ccc(F)cc1)[C@H](C)CN([C@@H](C)CO)S2(=O)=O	-8	-4	-63	0	0	-2	·
CCN(CC)c1ccc(-c2nc3cnccn3c2NC2CCCC2)cc1	16	3	-36	·	4	181*	3
c1cn2c(NC3CCCCC3)c(-c3ccc(SC4CCCCC4)cc3)nc2cn1	25	5	11	1	4	-18	·
Cc1cc(Cl)ccc1NC(=S)NCCC(c1ccccc1)c1ccccc1	·	-6	·	·	12	112*	7
Cc1c(Cl)cccc1NC(=S)NCCC(c1ccccc1)c1ccccc1	·	2	·	·	-9	-7	·
CCCC#Cc1ccc2c(c1)O[C@@H](CN(C)C(=O)c1ccncc1)[C@@H](C)CN([C@@H](C)CO)S2(=O)=O	-1	-10	18	0	1	-9	·
CO[C@@H]1CN(C)C(=O)c2ccc(NC(=O)Nc3c(C)noc3C)cc2OC[C@H](C)N(C)C[C@H]1C	-2	1	-1	0	3	-12	·
CO[C@@H]1CN(C)C(=O)c2ccc(NC(=O)c3nc4ccccc4s3)cc2OC[C@@H](C)N(Cc2ccncc2)C[C@@H]1C	1	0	2	0	4	-1	·
CO[C@H]1CN(C)C(=O)c2ccc(NC(=O)c3nc4ccccc4s3)cc2OC[C@H](C)N(Cc2ccncc2)C[C@H]1C	4	11	24	0	2	173*	i
CO[C@@H]1CN(C)C(=O)c2ccc(NC(=O)C3CCOCC3)cc2OC[C@@H](C)N(C(C)=O)C[C@H]1C	2	-1	-12	0	4	147*	i
CCCC(=O)Nc1ccc2c(c1)C(=O)N(C)C[C@@H](OC)[C@H](C)CN(S(=O)(=O)c1cn(C)cn1)[C@@H](C)CO2	1	1	-2	0	4	134*	i
CO[C@@H]1CN(C)C(=O)c2ccc(NC(=O)Nc3c(C)noc3C)cc2OC[C@H](C)N(C)C[C@@H]1C	2	7	-3	0	3	69*	i
COCCNC(=O)C[C@H]1CC[C@@H]2[C@H](COc3ccc(NC(=O)Cc4ccccc4)cc3C(=O)N2C)O1	-1	0	-3	0	2	·	·
C=CCN(c1ccccc1)S(=O)(=O)c1cccc(C(=O)NNC(=O)c2ccccc2O)c1	-15	·	10	1	-6	-18	·
C=CCN(c1ccccc1)S(=O)(=O)c1cccc(C(=O)O)c1	4	·	-4	·	-7	519*	0
CC1(C)CC(=O)C2=C(C1)NC(=S)C(C#N)C21CCCCC1 (stereo not drawn)	·	13	·	0	5	110*	13
C[C@H](CO)N1C[C@H](C)[C@@H](CN(C)C(=O)c2ccccn2)Oc2ncc(Br)cc2C1=O	-1	10	9	0	3	202*	i
C/C=C/c1cnc2c(c1)C(=O)N([C@H](C)CO)C[C@H](C)[C@H](CN(C)C(=O)c1cnccn1)O2	4	11	5	0	-2	137*	i
COc1ccc(NC(=O)Nc2ccc3c(c2)[C@@H]2C[C@H](CC(=O)N4CCCCC4)O[C@@H](CO)[C@@H]2O3)cc1	1	-7	0	0	4	-4	·

3 structures from above, ordered by heavy-atom count, low to high:
SMILES	esBAF inh	PGC1a acetyl inh	C2C12 statin	E-selectin induc	PglD DTNB	Yeast UUG start-1	Yeast UUG start-2	others
Cc1c(Cl)cccc1NC(=S)NCCC(c1ccccc1)c1ccccc1	·	2	·	·	-9	-7	·
COCCNC(=O)C[C@H]1CC[C@@H]2[C@H](COc3ccc(NC(=O)Cc4ccccc4)cc3C(=O)N2C)O1	-1	0	-3	0	2	·	·
CO[C@H]1CN(C)C(=O)c2ccc(NC(=O)c3nc4ccccc4s3)cc2OC[C@H](C)N(Cc2ccncc2)C[C@H]1C	4	11	24	0	2	173*	i

(more compounds)
SMILES	esBAF inh	PGC1a acetyl inh	C2C12 statin	E-selectin induc	PglD DTNB	Yeast UUG start-1	Yeast UUG start-2	others
Cc1ccc(OCC(=O)Nc2oc(-c3ccccc3)c(-c3ccccc3)c2C#N)cc1	-1	12	-7	·	-5	-3	·
COc1ccc(-c2oc(NC(=O)CCl)c(C#N)c2-c2ccc(OC)cc2)cc1	-8	·	18	·	3	308*	14
CO[C@H]1CN(C)C(=O)c2cc(NC(=O)C3CCCC3)ccc2OC[C@H](C)N(CC2CC2)C[C@@H]1C	10	-2	11	0	0	-10	·
O=C(Nc1ccc(Nc2ccccc2)cc1)c1ccco1	?	·	-47	·	-5	610*	-14
O=C(Nc1ccc(-c2ccccc2)cc1)c1ccco1	-3	0	8	6	5	-32	·
ON=C(CCc1ccccc1)c1ccccc1	74*	-16	-18	5	-4	-6	·	esBAF Ring1 qPCR=1.1;Fgf4 repress=1.1;esBAF Bmi1 qPCR=1.9;A549 cytotox=3;HepG2 cytotox SP=-21;HEK293 tox SP=-2
CC(C)NC(=O)Nc1ccc2c(c1)C(=O)N([C@H](C)CO)C[C@H](C)[C@H](CN(C)Cc1ccc(Cl)c(Cl)c1)OCCCC[C@H](C)O2	-2	1	·	·	-1	9	·

Molecules above containing an aryl methoxy group (two):
SMILES	esBAF inh	PGC1a acetyl inh	C2C12 statin	E-selectin induc	PglD DTNB	Yeast UUG start-1	Yeast UUG start-2	others
COc1ccc(NC(=O)Nc2ccc3c(c2)[C@@H]2C[C@H](CC(=O)N4CCCCC4)O[C@@H](CO)[C@@H]2O3)cc1	1	-7	0	0	4	-4	·
COc1ccc(-c2oc(NC(=O)CCl)c(C#N)c2-c2ccc(OC)cc2)cc1	-8	·	18	·	3	308*	14

Screens: PubChem, Broad Institute
